{
  "source": "paper PMC9029360",
  "about": "“Cyclooxygenase-Inhibiting Platinum(IV) Prodrugs with Potent Anticancer Activity” (Pharmaceutics, 2022)",
  "test_system": "panel of cancer cell lines",
  "conditions": "on average across all the cancer cell lines",
  "data": [
    {"substance": "[Pt(Phen)(SSDACH)(Aspirin)(OH)](NO3)2 [compound 3]", "values": [
      {"measurement": "fold more active than corresponding di-hydroxido platinum(IV) derivative (PHENSS(IV) or 56MESS(IV))", "result": "ten-fold"}
    ]}
  ]
}
